Tested on: WM266-4 cells
Assay type: cell-based
Conditions: B18R 100 ng/ml, type I IFN decoy receptor
Experimental: For the intracellular delivery of immune stimulatory RNAs, RNAs were transfected with the DharmaFECT® Duo liposomal transfection reagent (Thermo Scientific, Waltham, Mass.) at a transfection reagent (μl):RNA (μg) ratio of 3.75:1, according to the manufacturer's instructions. Unless otherwise stated, for the induction of innate immune responses and apoptosis, immune stimulatory RNAs (500 ng/ml) were transfected into 50 to 70% confluent cells. Cells were incubated with an RNA-transfection agent complex for 5 h, followed by replenishment with fresh culture medium. […]
Growth inhibition relative to untreated cells was quantified at 72 h after RNA transfection using an MTT Cell Proliferation Assay Kit (Cayman Chemicals, Ann Arbor, Mich.), according to the manufacturer's instructions. The percent growth inhibition was calculated by using the following equation: % growth inhibition=([O.D.]untreated−[O.D.]treated)/[O.D.]untreated×100. The induction of cell death was measured 48 h after RNA transfection by flow cytometry after staining with Annexin V-PE and 7-Aminoactinomycin D (7-AAD) using the PE Annexin V Apoptosis Detection Kit I (BD Biosciences, San Jose, Calif.) and analyzed using the CellQuest software (BD Biosciences).

B1: recombinant IFNβ: recombinant human IFNβ (PeproTech), positive control of anti-melanoma cytotoxicity (protein)
chain: MSYNLLGFLQRSSNFQCQKLLWQLNGRLEYCLKDRMNFDIPEEIKQLQQFQKEDAALTIYEMLQNIFAIFRQDSSSTGWNETIVENLLANVYHQINHLKTVLEEKLEKEDFTRGKLMSSLHLKRYYGRILHYLKAKEYSHCAWTIVRVEILRNFYFINRLTGYLRN
cell death / apoptosis of melanoma cells on co-treatment with B18R: completely abolished

From patent US10350158B2, “2′ fluoro-modified RNAs as immunostimulators” (DUKE UNIVERSITY, priority 2013, dated 2019)
